Experiment [1] has as its system operated rats (plantar incision).

These results are taken from patent US9789115B2 (priority 2010, dated 2017).

The structures appear in SMILES notation.

Turning to `Cc1cc(OCCN2CCOCC2)nn1-c1ccc2ccccc2c1` [compound n° 63, 4-{2-[5-Methyl-1-(naphthalen-2-yl)-1H-pyrazol-3-yloxy]ethyl}morpholine], the “enhancement of allodynia induced by remifentanil administration” value in the experiment on naïve rats (i.p. coadministration, remifentanil 0.3 mg/kg, sigma ligand 20, 40 and 80 mg/kg) is “reduces dose-dependently”. Also, in the experiment on naïve rats (sigma ligand 20 and 40 mg/kg, FIG. 7), the “remifentanil-induced hyperalgesia (OIH)” value is “inhibitory effect on OIH is clear”. The “enhancement of allodynia induced by perioperative fentanyl” value in experiment [1] (sigma ligand 20 mg/kg on day 0, paradigm 2, fentanyl 0.16 mg/kg x 3) is recorded as “strongly reduced”. For the same compound, the “enhancement of allodynia induced by perioperative sufentanil” value in experiment [1] (sigma ligand 20 mg/kg on day 0, paradigm 2, sufentanil 0.05 mg/kg x 3) was “strongly reduced”. Moreover, the “allodynia secondary to both surgery and opioid (Remifentanil) use” value in experiment [1] (sigma ligand 40 and 80 mg/kg, paradigms 1 and 2) is given as “inhibits allodynia”.
